Source: patent US20230138177A1 (priority 2020, published 2023)

Key:
[1] = tested on: DYRK4; assay: Time course in vitro rabbit reticulocyte transcription/translation of HA-DYRK4 (FIG. 7F); details: reticulocyte lysate, 300 μM CoCl2
[2] = tested on: GSK3β; assay: Time course in vitro rabbit reticulocyte transcription/translation of HA-GSK3β (FIG. 7G); details: reticulocyte lysate, 300 μM CoCl2

CoCl2
abolished: proline hydroxylation of DYRK4 [1] | tyrosine autophosphorylation of DYRK4 [1] | proline hydroxylation of GSK3β [2] | tyrosine autophosphorylation of GSK3β [2]
